Read-outs that look alike come from different tables or passages of the source. Marks after values point to notes of the source that are not given here.
Legend:
[1] = system: UWB1.289 + BRCA1
[2] = system: UWB1.289 + BRCA1; conditions: human
[3] = system: UWB1.289 + BRCA1; assay: cells; conditions: Homo sapiens, UWB1289, 48 h; for GI50: read-out: GI50 ±SEM (50% inhibition of cell growth, cytostatic); for IC50: read-out: IC50 ±SEM (50% cytocidal effect, cytotoxic)
[4] = system: UWB1.289 + BRCA1; assay: Sister chromatid exchanges (SCEs) assay, genotoxicity and PRI
[5] = molecular target: T1, PARP-HSA Enzyme (PARP1/2) (Homo sapiens, UniProt P09874); assay: biochemical
[6] = molecular target: T1, PARP-HSA Enzyme (PARP1/2)
[7] = system: PARP1 mRNA (PARP1/ACTB); format: cell-based, human; conditions: UWB1.289, UWB1.289 + BRCA1 and OVCAR-3, vs untreated cells, 20 and 40 μΜ, 72 h

Amino acid sequences for entries named in this document (tags omitted).
UniProt P09874, whole entry: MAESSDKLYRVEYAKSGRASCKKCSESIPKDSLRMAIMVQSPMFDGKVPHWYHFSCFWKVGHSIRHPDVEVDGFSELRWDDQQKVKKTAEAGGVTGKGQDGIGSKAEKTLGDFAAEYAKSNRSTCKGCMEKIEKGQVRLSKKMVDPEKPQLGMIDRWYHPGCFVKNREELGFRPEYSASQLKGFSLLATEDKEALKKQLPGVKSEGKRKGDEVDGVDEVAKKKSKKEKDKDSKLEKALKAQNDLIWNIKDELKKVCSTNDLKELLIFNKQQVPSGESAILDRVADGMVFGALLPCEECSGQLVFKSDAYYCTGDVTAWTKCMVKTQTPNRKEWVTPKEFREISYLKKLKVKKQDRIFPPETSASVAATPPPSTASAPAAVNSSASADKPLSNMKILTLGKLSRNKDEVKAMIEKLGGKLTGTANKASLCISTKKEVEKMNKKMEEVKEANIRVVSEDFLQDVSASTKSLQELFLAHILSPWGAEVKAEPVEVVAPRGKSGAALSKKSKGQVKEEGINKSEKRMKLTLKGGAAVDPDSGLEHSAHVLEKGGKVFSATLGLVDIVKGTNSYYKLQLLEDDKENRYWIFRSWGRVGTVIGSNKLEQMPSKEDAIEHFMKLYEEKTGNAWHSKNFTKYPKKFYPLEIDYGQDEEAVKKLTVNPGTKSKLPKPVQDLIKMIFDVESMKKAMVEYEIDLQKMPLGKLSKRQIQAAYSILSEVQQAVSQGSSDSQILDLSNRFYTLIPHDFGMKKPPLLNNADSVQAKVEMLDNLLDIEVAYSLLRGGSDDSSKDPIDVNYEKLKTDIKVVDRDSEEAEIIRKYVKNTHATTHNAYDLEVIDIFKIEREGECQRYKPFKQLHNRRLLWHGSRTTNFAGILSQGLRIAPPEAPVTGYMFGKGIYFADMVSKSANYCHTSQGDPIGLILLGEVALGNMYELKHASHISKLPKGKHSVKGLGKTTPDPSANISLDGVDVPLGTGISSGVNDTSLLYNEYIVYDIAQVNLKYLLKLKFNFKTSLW

SMILES | TGI ±SEM (100% cell growth inhibition, cytostatic) [1] | SCE/Chromosome ± SEM [2] | SCEs/metaphase ± SEM [2] | GI50 [3] | IC50 [3] | PRI (Proliferation Rate Index) [4] | IC50 [5] | Vmax (Michaelis Menten's model of PARP inhibition curve, ± SEM) [6] | TGI ±SEM (100% cell growth inhibition, cytostatic) ([1]; UWB1.289 + BRCA1, 48 h treatment, MTT) | Vmax (Michaelis Menten's model of PARP inhibition curve, ± SEM) ([6]; PARP 0.6 units/well) | PRI (Proliferation Rate Index) ([4]; UWB1.289 +BRCA1, 3 μM) | SCE/Chromosome ± SEM ([4]; UWB1.289 +BRCA1, 3 μM) | SCEs/metaphase ± SEM ([4]; UWB1.289 +BRCA1, 3 μM) | increase of PARP1/ACTB mRNA ratio [7]
CC(C)CCCC(C)[C@H]1CCC2C3NC(=O)C=C4C[C@@H](OC(=O)CCOc5ccc(N(CCCl)CCCl)cc5)CC[C@]4(C)C3CC[C@@]21C (stereo partly drawn) [ASA-C, 7a,9a-dimethyl-10-((R)-6-methylheptan-2-yl)-2-oxo-1,2,4,5,6,7,7a,7b,8,9,9a,10,11,12,12a,12b-hexadecahydrobenzo[d]indeno[4,5-b]azepin-5-yl 3-(4-(bis(2-chloroethyl)amino)phenoxy)propanoate] | >100 µM | 0.21 ± 0.02 | 15.32 ± 1.14 | > 100 µM | > 100 µM | 2.08 | 166 ± 19.8 µM | – | – | – | – | – | – | –
C[C@]12CC[C@H](OC(=O)CCOc3ccc(N(CCCl)CCCl)cc3)CC1=CC(=O)NC1C2CC[C@]2(C)C(=O)CCC12 (stereo partly shown) [ASA-A, 7a,9a-dimethyl-2,10-dioxo-1,2,4,5,6,7,7a,7b, 8,9,9a,10,11,12,12a,12b-hexadecahydrobenzo[d]indeno [4,5-b]azepin-5-yl 3-(4-(bis(2-chloroethyl)amino)phenoxy)propanoate] | 54 ± 4.33 µM | 0.86 ± 0.05 | 63.86 ± 3.62 | 22 ± 2.01 µM | 76 ± 6.66 µM | 1.85 * | 59.6 ± 6.42 µM | 124.644 ± 60.83 | – | – | – | – | – | –
NC(=O)c1cccc(N)c1 [3-AB, 3-Aminobenzamide, reference compound] | – | – | – | > 100 µM | > 100 µM | – | – | – | >100 µM | 74.130 ± 4.16 | – | – | – | –
O=C(c1cc(Cc2n[nH]c(=O)c3ccccc23)ccc1F)N1CCN(C(=O)C2CC2)CC1 [Olaparib] | >100 µM | – | – | > 100 µM | > 100 µM | – | – | – | – | – | 2.07 | 0.33 ± 0.025 | 24.75 ± 1.86 | –
CC12CCC3C(NC(=O)C=C4CC(OC(=O)CCOc5ccc(N(CCCl)CCCl)cc5)CCC43C)C1CCC(=O)N2 (stereo not shown) [ASA-B, 11a,13a-dimethyl-2,6-dioxo-2,3,4,4a,4b,5,6,8,9,10,11,11a,11b,12,13,13a-hexadecahydro-1H-benzo[4,5]azepino [2,3-f]quinolin-9-yl 3-(4-(bis(2-chloroethyl)amino)phenoxy)propanoate] | 72 ± 6.71 µM | 0.89 ± 0.047 | 65.95 ± 3.47 | 20 ± 1.86 µM | 95 ± 9.03 µM | 1.88 * | 35.2 ± 3.78 µM | 147.817 ± 14.93 | – | – | – | – | – | 42–50 fold

From paper PMC8394033, “Cytocidal Antitumor Effects against Human Ovarian Cancer Cells Induced by B-Lactam Steroid Alkylators with Targeted Activity against Poly (ADP-Ribose) Polymerase (PARP) Enzymes in a Cell-Free Assay” (Biomedicines, 2021)
